Results reported in paper PMC10023679, “Amide-to-ester substitution as a stable alternative to N-methylation for increasing membrane permeability in cyclic peptides” (Nature Communications, 2023).

Test: Caco-2 assay (permeability across cell monolayers)
Format: in vitro ADME
Details: human, 1 μM compounds in HBSS (pH 7.4) containing 10 mM HEPES and 1% DMSO, 3 h incubation at 37 °C, read-out: Caco-2 permeability Pa
Procedure: The permeability assay across cell monolayers was conducted according to a previously reported procedure[57] using Millicell cell culture insert plates (Millipore). 4.2 × 10^4 Caco-2 cells were spread on each insert chamber and culture medium was added in a receiver plate. The cells were cultured in the insert chambers at 37 °C for 22–25 days. The trans-epithelial electrical resistance (TEER) was measured to confirm the value in each well is above 300 Ω cm^2. The medium in the lower chamber and upper chamber was removed by aspiration. 0.4 mL of transport buffer (HBSS buffer containing 10 mM HEPES, pH 7.4) was added to the upper chamber and 0.8 mL of the same buffer was added to the lower chamber. After incubating the plate for 30 min at 37 °C, the buffer was removed. 0.42 mL of peptide solution in transport buffer was added to the upper chamber and 20 μL was aliquoted. 0.8 mL of transport buffer was added to the lower chamber. For evaluation in the basolateral-to-apical direction, 0.82 mL of peptide solution in transport buffer was added to the lower chamber and 20 μL was aliquoted. 0.4 mL of transport buffer was added to the upper chamber. The plate was incubated at 37 °C. […] After incubating the plate at 37 °C for 1 h, 200 µL of lower chamber solution was transferred to a 96-well black plate and the fluorescence at ex/em = 485/538 nm was measured. […]

- Papp at 3 h, 1 μM: 0.4 ×10⁻⁶ cm/s
Compound: CC(C)C[C@@H]1NC(=O)[C@H](Cc2ccc(O)cc2)NC(=O)[C@H]2CCCN2C(=O)[C@H](CC(C)C)NC(=O)[C@H](CC(C)C)NC(=O)[C@@H](CC(C)C)NC1=O [CP1]
